Structures can show the parent of a compound that is named as a salt.
How the values were obtained:
human GPR4 [1] = target: T1, human GPR4 (Homo sapiens (Human), UniProt P46093); test: Human GPR4 binding assay with additional human serum albumin (4% HSA); conditions: binding assay with 4% HSA
Protocol: Cells were grown in T175 flasks to a density of about 1×10^6 cells/mL in growth medium. The cells were harvested by centrifugation (3000 rpm for 30 minutes at 4° C.) and the pellet resuspended in ice cold buffer A (20 mM HEPES pH 7.8, 10 mM EDTA, 100 mM NaCl, 1 tab/40 mL protease inhibitor complete). […] The homogenate was centrifuged at 18000 rpm for 50 min at 4° C. and the membrane protein pellet resuspended in cold buffer A using the Polytron (2×20 seconds). The protein concentration is determined using the Bio Rad Protein Assay and human IgG as standard. The volume of the membrane protein suspension is adjusted to a final concentration of about 2 mg protein/mL. The suspension is then once again homogenized (Polytron) on ice at 25000 rpm for 20 seconds before being aliquoted and stored at −80° C.
Radio Ligand Binding Assay: Serial dilutions of compounds (stock in 10 mM DMSO) are prepared by first diluting the compounds in DMSO followed by a 1:50 dilution into assay buffer (10 mM HEPES, pH 8.0, 100 mM NaCl, 5 mM MgCl2, 1 mM CaCl2, 0.5% fatty acid-free BSA, 0.05% Tween-20). […] The desired amount of membranes (20 μg/well) is diluted with assay buffer. […] 100 μL of the membrane-suspension is added and the plate stirred for 60 minutes. […] The filter plate is washed 5 times with ice-cold wash buffer, dried and sealed at the bottom. Then 20 μL of Microscint 40 is added into each well and the top of the plate is sealed. Finally the plate is counted for 2 min/well in a TopCount NXT instrument (Packard Instruments). The data are analyzed using the GraphPad Prism™ software.
In a similar manner, a binding assay with additional human serum albumin (4% HSA) has been established.

Chains of the proteins cited; added tags and fusions are not shown. Lines headed by an entry give the natural chain unless they say otherwise; changes in a name come on top.
UniProt P46093: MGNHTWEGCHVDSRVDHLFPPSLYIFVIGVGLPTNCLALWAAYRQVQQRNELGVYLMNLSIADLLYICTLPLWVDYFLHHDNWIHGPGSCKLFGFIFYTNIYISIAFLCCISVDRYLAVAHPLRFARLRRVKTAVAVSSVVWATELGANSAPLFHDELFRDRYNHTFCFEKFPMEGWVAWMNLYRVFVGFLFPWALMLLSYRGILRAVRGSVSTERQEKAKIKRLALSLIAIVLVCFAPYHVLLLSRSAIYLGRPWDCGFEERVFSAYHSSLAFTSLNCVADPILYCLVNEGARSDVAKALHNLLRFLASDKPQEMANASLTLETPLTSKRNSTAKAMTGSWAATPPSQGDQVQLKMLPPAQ

[2] = Negative control binding: membranes from parental (non-transfected) 300.19 cells; design: species or system murine; conditions: 5 nM radioligand, non-transfected 300.19 membranes
Description: As negative control, membranes isolated from parental (non-transfected) murine pre-B cell line 300.19 were used.

human GPR4 [3] = target: T1, human GPR4; test: Cell-based assay for human GPR4 activity (pH-induced cAMP formation, HTRF, HeLa cells); conditions: HeLa cells stably expressing human GPR4, pH-induced cAMP
Protocol: b) Cell-Based Assay for Human GPR4 Activity
HeLa cells stably expressing human GPR4 were established by transfecting the cells with a construct containing the human GPR4 coding sequence. The cells were grown in Dulbecco's Modified Eagle Medium (DMEM)/HAM's tissue culture medium F12 (HAM's F12) supplemented with 10% fetal calf serum (FCS), 100 u/ml penicillin, 100 μg/ml streptomycin and 400 μg/ml G418 and 10 mM Hepes pH 8.0. pH-induced formation of cAMP was determined using the homogeneous time resolved fluorescence (HTRF) technology as provided by CisBio Inc. The cells were seeded in 384-well plates and cultured for 24 hours at 37° C., 5% CO2 before performing the assay. Medium was removed and 10 μl buffer A (Hepes buffered saline (HBS), 10 mM Hepes, pH 8, 2 mM 3-Isobutyl-1-methylxanthin (IBMX)) was added. For compound testing, buffer A with 2× concentrated compounds was used. Cells were incubated for 15 min at room temperature. 10 μl buffer B (HBS, 30 mM Hepes, specific pH) was added to reach the appropriate final pH for stimulation (see below) and incubation was continued for 15 min at room temperature. […] HBS: 130 mM NaCl, 0.9 mM NaH2 PO4, 5.4 mM KCl, 0.8 mM MgSO4, CaCl2 1.8 mM, 25 mM glucose, 10-30 mM Hepes. Adjustment of HBS buffers:
Compounds were diluted from fresh stock solutions at 10 mM in DMSO to 2 mM and then used for serial dilutions in DMSO.

| Compound | IC50 (human GPR4 [1]) | other results |
| --- | --- | --- |
| CCc1nn2c(C)cc(C)nc2c1Cc1ccc(-n2cc(CN3CCC(N)CC3)cn2)cc1 [Example 30, 1-{1-[4-(2-Ethyl-5,7-dimethyl-pyrazolo[1,5-a]pyrimidin-3-ylmethyl)-phenyl]-1H-pyrazol-4-ylmethyl}-piperidin-4-ylamine] | 18 nM |  |
| CCc1nn2c(C)cc(C)nc2c1Cc1ccc(/C=C/CC2(O)CCN(C[C@@H](O)CO)CC2)cc1 [Example 6, (R)-3-(4-{(E)-3-[4-(2-Ethyl-5,7-dimethyl-pyrazolo[1,5-a]pyrimidin-3-ylmethyl)-phenyl]-allyl}-4-hydroxy-piperidin-1-yl)-propane-1,2-diol] | 18 nM |  |
| CCc1nn2c(C)cc(C)nc2c1Cc1ccc(CCCN2CCN(C(C)C)CC2)cc1 [Example 39, [^3H]4-2-Ethyl-3-{4-[3-(4-isopropyl-piperazin-1-yl)-propyl]-benzyl}-5,7-dimethyl-pyrazolo[1,5-a]pyrimidine] |  | binding signal on parental membranes [2]: background signal was observed only |
| CCc1nn2c(C)cc(C)nc2c1Cc1ccc(OCC2CCNCC2)cc1 [Example 21, 2-Ethyl-5,7-dimethyl-3-[4-(piperidin-4-ylmethoxy)-benzyl]-pyrazolo[1,5-a]pyrimidine hydrochloride] | 13 nM |  |
| CCc1nn2c(C)cc(C)nc2c1Cc1ccc(OCC2CCN(C(=O)[C@H]3NCC[C@H]3O)CC2)cc1 [Example 22, {4-[4-(2-Ethyl-5,7-dimethyl-pyrazolo[1,5-a]pyrimidin-3-ylmethyl)-phenoxymethyl]-piperidin-1-yl}-((2S,3R)-3-hydroxy-pyrrolidin-2-yl)-methanone] |  | IC50 (human GPR4 [3]): 13 nM |
